Values of other authors as cited in patent US5776946A, “Peripheral benzodiazepine receptor ligands as antiinflammatory agents” (priority 1995, dated 1998).

Protein sequences, listed by entry. Tags and fused reporters are not part of them.
UniProt P30536, whole entry: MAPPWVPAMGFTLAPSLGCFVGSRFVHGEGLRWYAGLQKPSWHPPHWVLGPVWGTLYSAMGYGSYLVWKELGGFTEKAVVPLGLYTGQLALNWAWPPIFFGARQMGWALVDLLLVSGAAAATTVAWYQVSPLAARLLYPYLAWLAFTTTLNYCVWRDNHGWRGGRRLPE

Target: T1, peripheral benzodiazepine receptors in brain (Homo sapiens, UniProt P30536)
T1 construct: In brain, this has been determined to be 3.5 nM for PK 11195 itself; host or cells: brain (Doble et al., 1987)
Settings: read-out: ability to displace bound PK 11195 from peripheral benzodiazepine receptors (Ki); cited from earlier work

O=C1CN=C(c2ccccc2Cl)c2cc([N+](=O)[O-])ccc2N1 [clonazepam]
Ki: 46 µM
